{"source": "patent US12320799B2", "about": "“Methods of measuring signaling pathway activity for selection of therapeutic agents” (Celcuity Inc., priority 2017, dated 2025)", "key": {"[1]": {"system": "C21 cells", "experiment": "Mouse xenograft study with C21 tumor cells", "format": "in vivo", "settings": "female NSG mice xenografted with C21 cells; after 16 days of treatment"}, "[2]": {"system": "HER1, HER3 and c-Met pathways", "experiment": "CELx test of multiple pathways simultaneously (EGF, NRG1, HGF in combination), impedance biosensor", "format": "cell-based, human", "excerpt": "Biosensor and transducer: A 96-well impendence E-Plate (ACEA, San Diego, CA) was placed onto an xCELLigence RTCA MP Station impendence biosensor (ACEA, San Diego, CA). The biosensor measured simultaneously the impedance of every well. The change in impedance for a particular well is proportional to the number of cells and type of attachment the cells have with the impedance microplate. Changes in impedance indicate a response to perturbation of these small cell populations. Coatings: The 96-E-Plate were wells were coated with fibronectin and or collagen. Collagen is purchased from Advanced BioMatrix (Carlsbad, CA) and fibronectin from Sigma-Aldrich (St. Louis, MO). Tissue and cell samples: Six samples of human tumor cells from breast cancer were studied (C1815, C1596, C1838, C135, C42, C264). Any biomarkers that are used to guide selection of targeted therapy are listed in Table 22 for each patient if they were present. Signaling Pathways activator agent and targeted therapeutic pairs: In each human tumor cell sample, gross signaling activity of the HER1, HER3 and c-Met pathways initiated by three activator agents (EGF, NRG1, HGF) in combination was quantified. […] Each of the signaling pathway activator agents is a well-characterized and specific agonist of its associated signaling pathway. […] The fifth targeted therapeutic tested, taselisib, is an inhibitor that binds to PI3k, which downstream of the HER family and c-Met receptors. Other Reagents: Standard media, antibiotics (e.g. penicillin, streptomycin), and other buffers were purchased and used as delivered from ATCC (Manassas, VA, USA) or Life Technologies (Grand Island, NY). Procedure:\nFor each test of a patient cell sample with a signaling pathway activator(s) and targeted therapeutic agent(s), six or eight wells were seeded with approximately 15,000 cells in 120 uL culture media; six wells were seeded when only a single drug was evaluated and eight wells were seeded when two drugs were evaluated. When only a single drug was evaluated, 20 uL of the targeted therapeutic agent was added to two wells of each patient's cells and the final concentration of the therapeutic agent in the two wells with the single therapeutic agent was 500 nanomolar. When two therapeutic agents were evaluated, two wells of patient cells received 20 uL of the combined therapeutic agents at a concentration of 500 nanomolar each and an additional two wells of patient cells received 20 uL of the combined therapeutic agents at a concentration of 50 nanomolar each. Twenty microliters of standard media were added to the other four wells for each patient 18 hours in advance of addition of the signaling pathway activator agent(s). Signaling pathway stimulation was initiated with the addition of 20 ul of the signaling pathway activator agent(s) in the two or four wells that received a targeted therapeutic agent(s) and two additional wells for each patient's set of cells. The impedance recording of attachment and adhesion change was performed at 37° C., 5% CO2. Data was recorded on a continuous basis throughout the test, where the data presented if from the initial baseline level of cell attachment compared to the subsequent effects following the targeted therapeutic agent(s) and the signaling pathway activator agent(s) additions on the nine different patient samples.\nFor each of the six patient samples, three different signaling pathways (HER1, HER3, c-Met) were activated simultaneously. The output value represents the difference between the amount of cell adhesion change resulting from addition of the signaling pathway activator agent(s) and the amount of cell adhesion change resulting from addition of the targeted therapeutic agent(s)."}}, "data": [{"smiles": "CN1CCC(COc2cnc(-c3cccc(Cn4nc(-c5cccc(C#N)c5)ccc4=O)c3)nc2)CC1", "note": "[tepotinib]", "values": [{"measurement": "tumor volume reduction relative to the control", "setting": "[1]", "result": 10, "unit": "%"}, {"measurement": "Output value (cell adhesion change, activator agents minus targeted therapeutic agent(s))", "setting": "[2]; breast cancer patient sample C42, agent(s) 500 nM each", "result": 223}, {"measurement": "Output value (cell adhesion change, activator agents minus targeted therapeutic agent(s))", "setting": "[2]; breast cancer patient sample C135, agent(s) 500 nM each", "result": 73}, {"measurement": "Output value (cell adhesion change, activator agents minus targeted therapeutic agent(s))", "setting": "[2]; breast cancer patient sample C264, agent(s) 500 nM each", "result": 172}, {"measurement": "Output value (cell adhesion change, activator agents minus targeted therapeutic agent(s))", "setting": "[2]; breast cancer patient sample C1596, agent(s) 500 nM each", "result": 330}, {"measurement": "Output value (cell adhesion change, activator agents minus targeted therapeutic agent(s))", "setting": "[2]; breast cancer patient sample C1815, agent(s) 500 nM each", "result": 473}, {"measurement": "Output value (cell adhesion change, activator agents minus targeted therapeutic agent(s))", "setting": "[2]; breast cancer patient sample C1838, agent(s) 500 nM each", "result": 12}]}]}
